Like-named read-outs stand apart in the source and are kept apart here.
Experiments:
[1] = tested on: rat; assay: Tail-flick test in the rat (acute pain)
[2] = tested on: rat; assay: Blood gas analysis: arterial pCO2 and pO2 in the rat (respiratory depression); conditions: i.v.
[3] = tested on: rat; assay: Chung model: mononeuropathic pain after spinal nerve ligation; conditions: for Pain, rat: neuropathic (SNL [Chung]) ED50: Table 6
[4] = tested on: rabbit; assay: Cardiovascular parameters: blood pressure and cardiac frequency in the awake rabbit; conditions: i.v.
[5] = tested on: mouse; assay: RotaRod test: motor coordination in the mouse; conditions: i.v.
[6] = Pharmacodynamic duration of action; conditions: dose 100 μg/kg i.v.
[7] = Half-life t1/2 in the rat; conditions: 100 μg/kg, i.v.
[8] = tested on: mouse; assay: Jumping test: physical dependency in the mouse (naloxone-precipitated withdrawal); conditions: i.p.
[9] = tested on: rat; assay: Conditioned place preference in the rat (mental dependency); conditions: i.p.
[10] = tested on: mouse; assay: Charcoal passage test: gastrointestinal transit in the mouse; conditions: i.v.
[11] = tested on: mouse; assay: STZ, mouse: diabetic polyneuropathy; conditions: at 100 μg/kg i.p.
[12] = biological target: T1, ORL1 (Homo sapiens, UniProt P41146); assay: GTPgammaS assay, ORL1; conditions: for EC50: read-out: ORL1 EC50
[13] = biological target: T2, d-Opioid (Homo sapiens, UniProt P41143); assay: d-Opioid receptor radio-binding assay; conditions: read-out: d-Opioid Ki
[14] = biological target: T2, d-Opioid; assay: GTPgammaS assay, d-Opioid; conditions: for EC50: read-out: d-Opioid EC50
[15] = biological target: human μ-opiate receptor (Homo sapiens, UniProt P35372); assay: μ-opioid receptor binding ([3H]-naloxone, CHO-K1 membranes)
[16] = biological target: μ-Opioid (Homo sapiens, UniProt P35372); assay: GTPgammaS assay, μ-Opioid; conditions: for EC50: read-out: μ-Opioid EC50
[17] = biological target: T1, ORL1; assay: ORL1 receptor binding (3H-nociceptin/orphanin FQ, CHO-ORL1 membranes)
[18] = biological target: T3, k-Opioid (Homo sapiens, UniProt P41145); assay: GTPgammaS assay, k-Opioid; conditions: for EC50: read-out: k-Opioid EC50
[19] = biological target: T3, k-Opioid; assay: k-Opioid receptor radio-binding assay; conditions: read-out: k-Opioid Ki
[20] = tested on: mouse; assay: Tail-flick test in the mouse; conditions: at 1000 μg/kg i.v.
[21] = read-out: μ-Opioid Ki, radio-binding assay (Table 6)
[22] = read-out: ORL1 Ki, radio-binding assay (Table 6)
[23] = read-out: Ki (μ), binding affinity
[24] = read-out: Ki (ORL1), binding affinity

Sequences of proteins named here, by UniProt entry; tags and fusion partners are left off. A change or cut given only in a name is not applied to a line headed by its entry.
UniProt P41146: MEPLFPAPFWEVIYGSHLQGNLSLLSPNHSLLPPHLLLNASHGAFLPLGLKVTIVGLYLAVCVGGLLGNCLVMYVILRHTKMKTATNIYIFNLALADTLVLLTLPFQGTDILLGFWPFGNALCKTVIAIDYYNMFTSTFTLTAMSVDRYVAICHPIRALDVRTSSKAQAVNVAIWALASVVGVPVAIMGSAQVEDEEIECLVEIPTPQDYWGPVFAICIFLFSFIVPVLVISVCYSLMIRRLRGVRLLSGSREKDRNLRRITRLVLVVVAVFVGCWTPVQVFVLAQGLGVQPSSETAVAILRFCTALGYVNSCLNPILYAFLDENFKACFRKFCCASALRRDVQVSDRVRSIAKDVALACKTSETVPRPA
UniProt P41143, whole entry, looked up: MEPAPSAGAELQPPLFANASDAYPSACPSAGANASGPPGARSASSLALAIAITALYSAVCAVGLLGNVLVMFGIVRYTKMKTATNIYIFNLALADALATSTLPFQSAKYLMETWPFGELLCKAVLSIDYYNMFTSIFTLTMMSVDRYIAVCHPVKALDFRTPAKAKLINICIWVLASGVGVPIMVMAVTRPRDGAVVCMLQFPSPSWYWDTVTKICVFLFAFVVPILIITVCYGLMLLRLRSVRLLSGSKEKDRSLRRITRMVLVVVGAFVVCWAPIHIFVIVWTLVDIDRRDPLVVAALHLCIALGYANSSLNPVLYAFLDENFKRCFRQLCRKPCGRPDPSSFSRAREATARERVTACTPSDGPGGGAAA
UniProt P35372, whole entry, looked up: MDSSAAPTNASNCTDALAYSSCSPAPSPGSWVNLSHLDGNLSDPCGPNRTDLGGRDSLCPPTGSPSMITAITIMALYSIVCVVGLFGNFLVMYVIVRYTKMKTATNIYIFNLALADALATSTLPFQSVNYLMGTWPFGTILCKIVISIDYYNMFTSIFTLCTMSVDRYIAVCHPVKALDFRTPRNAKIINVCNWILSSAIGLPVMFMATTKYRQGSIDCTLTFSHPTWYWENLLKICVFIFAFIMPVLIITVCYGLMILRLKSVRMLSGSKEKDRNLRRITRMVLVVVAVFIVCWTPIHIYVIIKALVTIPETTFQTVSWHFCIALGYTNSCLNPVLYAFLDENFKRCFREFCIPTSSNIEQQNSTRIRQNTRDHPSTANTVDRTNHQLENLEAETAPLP
UniProt P41145: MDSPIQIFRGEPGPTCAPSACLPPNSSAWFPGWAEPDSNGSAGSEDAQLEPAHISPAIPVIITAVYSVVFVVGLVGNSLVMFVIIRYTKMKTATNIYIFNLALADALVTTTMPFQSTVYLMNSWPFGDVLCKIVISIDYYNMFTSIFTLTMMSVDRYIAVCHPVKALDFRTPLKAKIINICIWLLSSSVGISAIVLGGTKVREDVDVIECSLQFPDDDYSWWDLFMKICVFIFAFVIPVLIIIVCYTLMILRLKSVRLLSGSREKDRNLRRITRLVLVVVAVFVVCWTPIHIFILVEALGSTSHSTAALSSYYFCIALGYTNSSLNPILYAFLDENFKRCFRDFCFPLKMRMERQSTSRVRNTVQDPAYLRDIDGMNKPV

COc1ccc(CC(=O)N2CCc3c4ccccc4[nH]c3[C@]23CC[C@](c2cccc(F)c2)(N(C)C)CC3)cc1OC
Pain, rat: Acute (tail flick) % MPE ([1]; @ 10000 μg/kg (Table 6)): 0% MPE
Tail-flick, rat NOEL (inhibition of acute pain) ([1]; i.v.): NOEL: ≧10 mg/kg i.v.
Blood gas analysis, rat NOEL (respiratory depression) [2]: NOEL: 1 mg/kg i.v.
Pain, rat: neuropathic (SNL [Chung]) ED50 [3]: 0.088 mg/kg
ED50^n against neuropathic pain ([3]; i.v., neuropathy models): 0.088 mg/kg
Cardiovascular/circulatory system, rabbit NOEL (arterial blood pressure and cardiac frequency) [4]: NOEL: ≧3 mg/kg i.v.
RotaRod test, mouse NOEL (motor coordination) [5]: NOEL: 10 mg/kg i.v.
RotaRod, mouse NOEL [5]: 10 mg/kg
pharmacodynamic duration of action [6]: 3 h//about 3 h
t1/2, rat [7]: 3 h//about 3 h
Jumping test, mouse NOEL (physical dependency/withdrawal symptoms) [8]: NOEL: ≧10 mg/kg i.p.
Place preference, rat NOEL (mental dependency) [9]: NOEL: ≧20 mg/kg i.p.
Charcoal passage, mouse NOEL [10]: 1 mg/kg
Charcoal passage, mouse NOEL (gastrointestinal transit) [10]: NOEL: 1 mg/kg i.v.
STZ, mouse: inhibition of neuropathic pain in diabetic polyneuropathy [11]: 68% MPE at 100 μg/kg i.p.;
ORL1 relative efficacy [12]: 90%
EC50 [12]: 50 nM

CN(C)[C@]1(c2cccc(F)c2)CC[C@]2(CC1)NCCc1c3ccccc3[nH]c12
Tail-flick, rat % MPE ([1]; at 100 μg/kg i.v.): 60% MPE at
Chung, rat % MPE ([3]; at 30 μg/kg i.v.): 27% MPE at

COc1ccc(CC(=O)N2CCc3c4ccccc4[nH]c3[C@]23CC[C@@](c2cccc(F)c2)(N(C)C)CC3)cc1OC
Pain, rat: Acute (tail flick) % MPE ([1]; @ 31.6 μg/kg (Table 6)): 54% MPE
Tail-flick, rat % MPE ([1]; at 31.6 μg/kg i.v.): 54% MPE at
ORL1 relative efficacy [12]: 90%
EC50 [12]: 16 nM

CN(C)[C@]1(c2cccc(F)c2)CC[C@@]2(CC1)c1[nH]c3ccccc3c1CCN2C(=O)c1cc2ccccc2s1
Pain, rat: Acute (tail flick) % MPE ([1]; @ 1000 μg/kg (Table 6)): 0% MPE
Ki [13]: 8 nM
d-Opioid relative efficacy [14]: 87%
Ki [15, 21]: 12 nM
Pain, rat: neuropathic (SNL [Chung]) % MPE ([3]; @ 100 μg/kg (Table 6)): 20% MPE
μ-Opioid relative efficacy [16]: 66%
EC50 [16]: 13 nM
Ki [17, 22]: 14 nM
k-Opioid relative efficacy [18]: 55%
ORL1 relative efficacy [12]: 81%
EC50 [12]: 16 nM
Ki [19]: 49 nM

CN(C)[C@]1(c2ccccc2)CC[C@]2(CC1)c1[nH]c3ccccc3c1CCN2C(=O)/C=C/c1ccccc1
Tail-flick, rat NOEL ([1]; i.v.): > 0.1 mg/kg
Ki [15, 23]: 32 nM
Blood gas analysis, rat NOEL [2]: 1 mg/kg
Chung, rat % MPE ([3]; at 100 μg/kg i.v.): 18% MPE
Ki [17, 24]: 18 nM

CN(C)[C@]1(c2cccc(F)c2)CC[C@]2(CC1)c1[nH]c3ccccc3c1CCN2C(=O)Cc1ccc(Cl)cc1
Tail-flick, rat NOEL ([1]; i.v.): > 1 mg/kg
Ki [15, 23]: 50 nM
Chung, rat % MPE ([3]; at 100 μg/kg i.v.): 35% MPE
Ki [17, 24]: 17 nM
pharmacodynamic duration of action [6]: about 3 h
Charcoal passage, mouse NOEL [10]: 4.6 mg/kg

CN(C)[C@]1(c2cccc(F)c2)CC[C@]2(CC1)c1[nH]c3ccccc3c1CCN2C(=O)c1cc2ccccc2s1
Pain, rat: Acute (tail flick) % MPE ([1]; @ 1000 μg/kg (Table 6)): 0% MPE
Pain, rat: Acute (tail flick) % MPE ([1]; @ 10000 μg/kg (Table 6)): 73% MPE
Tail-flick, rat NOEL ([1]; i.v.): > 1 mg/kg
Ki [13]: 6.7 nM
d-Opioid relative efficacy [14]: 92%
EC50 [14]: 41 nM
Ki [15, 23]: 59 nM
Ki [15, 21]: 59 nM
Pain, rat: neuropathic (SNL [Chung]) ED50 [3]: 0.106 mg/kg
Chung, rat % MPE ([3]; at 100 μg/kg i.v.): 42% MPE
RotaRod, mouse NOEL [5]: ≧10000 μg/kg
μ-Opioid relative efficacy [16]: 82%
EC50 [16]: 1110 nM
Ki [17, 24]: 16 nM
Ki [17, 22]: 16 nM
pharmacodynamic duration of action [6]: about 3 h
k-Opioid relative efficacy [18]: 42%
EC50 [18]: 874 nM
Charcoal passage, mouse NOEL [10]: 3 mg/kg
ORL1 relative efficacy [12]: 92%
EC50 [12]: 102 nM
Ki [19]: 160 nM

CN(C)[C@]1(c2cccc(F)c2)CC[C@]2(CC1)c1[nH]c3ccccc3c1CCN2C(=O)Cc1ccc(F)cc1
Tail-flick, rat NOEL ([1]; i.v.): > 0.1 mg/kg
Ki [15, 23]: 9 nM
Blood gas analysis, rat NOEL [2]: 0.3 mg/kg
Chung, rat % MPE ([3]; at 100 μg/kg i.v.): 20% MPE
Ki [17, 24]: 3 nM
pharmacodynamic duration of action [6]: 1 to 3 h

CN(C)[C@]1(c2cccs2)CC[C@@]2(CC1)OCCc1c3ccccc3[nH]c12
Chung, rat % MPE ([3]; at 100 μg/kg i.v.): 17% MPE at
Tail-flick, mouse % MPE [20]: 78% MPE at

CN(C)[C@]1(c2ccsc2)CC[C@@]2(CC1)OCCc1c3cc(F)ccc3[nH]c12
Tail-flick, rat % MPE ([1]; at 1000 μg/kg i.v.): 33% MPE at
Chung, rat % MPE ([3]; at 100 μg/kg i.v.): 28% MPE at

CN(C)[C@]1(c2cccc(F)c2)CC[C@@]2(CC1)c1[nH]c3ccccc3c1CCN2C(=O)/C=C/c1ccccc1
Pain, rat: Acute (tail flick) ED50 ([1]; Table 6): 0.64 mg/kg
Tail-flick, rat ED50 ([1]; i.v.): ED50 = 640 μg/kg i.v.
Ki [13]: 6 nM
d-Opioid relative efficacy [14]: 126%
EC50 [14]: 19 nM
Ki [15, 23]: 8 nM
Ki [15, 21]: 8 nM
Blood gas analysis, rat NOEL [2]: NOEL = 300 μg/kg i.v.
Pain, rat: neuropathic (SNL [Chung]) ED50 [3]: 0.4 mg/kg
Chung, rat NOEL ([3]; i.v.): NOEL ≧ 100 μg/kg
μ-Opioid relative efficacy [16]: 97%
EC50 [16]: 79 nM
Ki [17, 24]: 2 nM
Ki [17, 22]: 3 nM
k-Opioid relative efficacy [18]: 88%
EC50 [18]: 59 nM
ORL1 relative efficacy [12]: 104%
EC50 [12]: 47 nM
Ki [19]: 19 nM
